The assay has as its target T1, Macrophage migration inhibitory factor (Homo sapiens, UniProt P14174).
T1 sequence (P14174 whole entry): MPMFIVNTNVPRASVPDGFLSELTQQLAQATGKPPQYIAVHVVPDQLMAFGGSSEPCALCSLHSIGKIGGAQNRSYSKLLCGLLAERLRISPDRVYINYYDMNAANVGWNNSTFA
Description: Inhibitory activity against tautomerase macrophage migration inhibitory factor (MIF). An outline of the steps:
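Recombinant human MIF at 4 ug/mL final, in sodium phosphate buffer pH 6.0. Inhibitors were added in DMSO (1% v/v final). The reaction was started with freshly made D-dopachrome (D-DOPA oxidized with periodate, 1:2) at 0.25–0.5 mM. The A475 decrease was followed for 10 min. Initial rates were corrected for the uncatalyzed rate without MIF. Ki came from three-dimensional nonlinear regression.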

pKi: −log10 of the molar value.

Consider `O=c1oc2cc(O)ccc2cc1-c1cc2ccccn2n1`, for which the pKi (commonly the Ki on a negative log10 scale, so that one unit is a factor of ten) is 6.30.

These data come from ChEMBL document CHEMBL1134345, “Coumarin and chromen-4-one analogues as tautomerase inhibitors of macrophage migration inhibitory factor: discovery and X-ray crystallography” (J Med Chem, 2001).
